Here are results for one substance from patent US20050202078A1, “Vesicle-encapsulated corticosteroids for the treatment of cancer” (priority 2002, published 2005).

The data set can be described thus: Analysis of amount of PLP or PL in tissues by HPLC. Particulars: 24 hours after injection of free PLP.

On to “prednisolone disodium phosphate [free PLP]”, for which the “PLP or PL in liver, spleen and tumor tissue” value is recorded as “Neither PLP nor PL was detected”.
